Source: patent US20090172831A1, “Methods for the production of plants resistant to HPPD herbicides” (Syngenta Limited, priority 2000, published 2009)

Protein sequences, listed by entry. Tags and fused reporters are not part of them.
UniProt A0ACD5V6K6, entry or part of it: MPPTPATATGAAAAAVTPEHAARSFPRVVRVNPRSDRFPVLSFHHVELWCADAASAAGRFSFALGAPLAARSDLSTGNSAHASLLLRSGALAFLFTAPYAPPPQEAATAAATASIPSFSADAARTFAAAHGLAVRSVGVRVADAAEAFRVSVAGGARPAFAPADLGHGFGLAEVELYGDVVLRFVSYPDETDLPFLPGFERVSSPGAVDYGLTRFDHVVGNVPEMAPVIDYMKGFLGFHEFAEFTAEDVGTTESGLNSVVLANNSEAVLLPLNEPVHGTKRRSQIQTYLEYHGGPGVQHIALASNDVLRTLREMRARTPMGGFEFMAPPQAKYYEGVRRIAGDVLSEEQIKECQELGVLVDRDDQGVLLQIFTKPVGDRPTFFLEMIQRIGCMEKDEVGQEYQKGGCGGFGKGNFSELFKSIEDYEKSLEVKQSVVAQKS
UniProt A0ACG8AE61, entry or part of it: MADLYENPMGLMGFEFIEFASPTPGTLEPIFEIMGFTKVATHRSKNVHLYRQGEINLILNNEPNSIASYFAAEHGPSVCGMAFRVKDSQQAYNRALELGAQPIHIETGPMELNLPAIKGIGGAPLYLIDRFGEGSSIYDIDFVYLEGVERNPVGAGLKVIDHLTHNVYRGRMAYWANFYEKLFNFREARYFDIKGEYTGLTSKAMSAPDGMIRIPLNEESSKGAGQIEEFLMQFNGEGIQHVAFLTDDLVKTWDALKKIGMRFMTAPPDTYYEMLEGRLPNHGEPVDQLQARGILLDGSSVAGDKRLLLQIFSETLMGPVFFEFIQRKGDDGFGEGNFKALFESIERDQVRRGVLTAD

Columns and labels:
[1] = biological target: Avena HPPD (Avena sativa, UniProt A0ACD5V6K6); assay: In vitro measurements of Avena HPPD (dissociation rate constants, Ki); format: binding; conditions: read-out: rate constants governing dissociation of the complexes
[2] = biological target: P. fluorescens HPPD (Pseudomonas fluorescens, UniProt A0ACG8AE61); assay: Dissociation of enzyme/inhibitor complexes by exchange with 14C-labelled inhibitor (koff; Kd = koff/kon); format: binding
Description: Herbicidal inhibitors of HPPD are found here to have generally low values of koff (in the range less than 0.0003 s^−1, often less than 0.000001 s^−1). It will be appreciated that many suitable methods known in the art for determining such low koff values are suitable for working the current invention. These include measuring rates of exchange of radio or otherwise labelled inhibitors either with or away from the enzyme inhibitor complex. For example enzyme inhibitor complexes can readily be prepared by incubating HPPD preparations with labelled or unlabelled inhibitor and then, after suitable periods, optionally rapidly separating the thus formed enzyme inhibitor complex from excess inhibitor by any suitable method such as ultrafiltration, binding to filters or exchange down a gel filtration column. Exchange reactions with the, thus prepared enzyme inhibitor complex is then initiated by addition of, as appropriate, excess labelled or unlabelled inhibitor. […] Many methods such as radiometric, fluorimetric, NMR, fluorescence depolarisation, EPR, Mossbauer, UV/VIS spectrophotometry etc. or phonon resonance can, in principle, be used to monitor the enzyme/ligand exchange reactions and, particularly in this case where the enzyme contains an iron atom at the ligand binding site. Optionally, the monitoring method may be continuous (as, for example, with scintillation proximity/bead-based methods) or, discontinuous, based upon collection of data at various timepoints wherein samples are removed and the bound and unbound label components rapidly separated and quantitated.
Values of koff can suitably be calculated by computer fitting based upon is numerical integration of the exchange data along with information on the active-site concentration of HPPD and upon kon values obtained as described below. […] In any event, koff values are always here calculated from the rate of the major slow exchange reaction. […]
Not all test inhibitors are readily available in a radiolabelled form. […] The reaction is then monitored and the relative proportions of bound and unbound label determined at various times. […]

[3] = test system: dicot plants; assay: Herbicidal activity versus dicot plants averaged over 6 or more species; conditions: in vivo
Description: Activity versus dicot plants refers here to herbicidal activity averaged over a range of 6 or more of those dicot weed and crop species usually used in screens used for compound discovery in the agrochemical community. Herbicidal activity versus dicot plants also refers here to that activity which is due to the inhibitor per se rather than due to some, potentially more herbicidal, metabolite of it which may be formed in planta or otherwise.

[4] = test system: tobacco plants transformed with Avena sativa 4-HPPD gene; assay: Tolerance of tobacco transformed with Avena sativa HPPD to herbicides; conditions: in vivo
Description: The structure of the resulting vector is shown schematically in FIG. 4.
The 4-HPPD plant expression cassette is then ligated in to the binary vector pBin19 restricted with Hind III and EcoRI and transformed into E. coli TOP10 cells (Invitrogen). This binary vector is then transformed into tobacco using methods well known in the art and, for example, as described elsewhere herein.

## CS(=O)(=O)c1ccc(C(=O)C2C(=O)CCCC2=O)c([N+](=O)[O-])c1 [Structure I, 2-(Nitro-4-methanesulphonylbenzoyl)-cyclohexane-1,3-dione]
[1]
  koff: > 0.0008 s⁻¹
[2]; − glycerol, read-out: koff
  koff: 2e-06 s⁻¹

## Cc1cc(C#N)ccc1C(=O)C1C(=O)C(C)(C)C(=O)C(C)(C)C1=O [Structure VI, 2-[2-methyl-4-cyanobenzoyl]-4,4,6,6-tetramethylcyclohexane-1,3,5-trione]
[3]
  herbicidal activity versus dicot plants relative to mesotrione: at least a quarter of the herbicidal activity of mesotrione
[2]; pH 7, in water at pH 7.0 and at 25 C, values of Table 3 restated
  koff: > 0.0002 s⁻¹
[2]; − glycerol, read-out: koff
  koff: > 0.0004 s⁻¹
[4]
  resistance of the transgenic plants compared with that to mesotrione: substantially less resistant

Like-named read-outs stand apart in the source and are kept apart here.
